## Binding of CDR-mutated scFvs to a peptide of the spike HR2 region

All variants were tested on one target, the spike HR2 peptide PDVDLGDISGINAS (SARS-CoV-2).

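Phage display of a naive human antibody library on the peptide gave the parent. This is the validation round: designs drawn from the data on random variants, tested in the same kind of assay. Several design methods are mixed in this list. Affinity was read by AlphaSeq, a pooled yeast mating assay with surface-displayed partners. After mating in shaken culture at 30 °C for 16 h, diploids were selected and their barcode pairs sequenced. Scores were corrected for input abundance and mapped to Kd with protein pairs of known affinity run in the same pool. The assay was run in six technical replicates.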

Each scFv is VH, a (GGGGS)3 linker, VL, as in the parent Ab-14, and differs from it in the CDRs of the light chain only.
VH: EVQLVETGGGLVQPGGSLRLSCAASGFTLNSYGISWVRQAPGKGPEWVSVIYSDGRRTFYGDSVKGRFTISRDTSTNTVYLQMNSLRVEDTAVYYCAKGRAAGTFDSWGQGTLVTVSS
VL: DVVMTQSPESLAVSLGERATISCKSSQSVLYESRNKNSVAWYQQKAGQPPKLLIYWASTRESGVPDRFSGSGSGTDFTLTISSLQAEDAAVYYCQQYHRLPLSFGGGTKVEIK

Changes read parent residue, position, new residue, counted from the first residue of the VL shown.
Variants here have at most six changes.
The Kd shown is the geometric mean over detected replicates; a lower Kd is a better binder.
A pair that was not seen in any replicate is written "nd"; this usually means weak binding, but a binder can also be missed.
Nonspecific signal, from three strains lacking the peptide, appeared in 4% of pairings of all light chain designs, centred on 430 nM (5% of these signals below 38 nM); values are not corrected for it.
Where one sequence has several entries in the source, the replicates are pooled.
Values of this round are not directly comparable with the first-round values of the same sequences.
Of ten entries with the parent sequence, four were seen in most replicates (averages 2.2 nM to 240 nM), three in one and three in none, so single entries are noisy.
The authors averaged sequences with at least three values out of six and counted those with two or fewer as poor binders.

The variant V29F Y31G S33Q W56D showed 2.7 nM (6 of 6 replicates). The variant S25L V29E W56N A57G showed 950 pM (6 of 6 replicates). For S25V Y31M W56D, the assay gave 410 pM (6 of 6 replicates). The variant S25L S26Q S38N W56N gave 350 pM (6 of 6 replicates). The variant S26I T59D gave nd (0 of 6 replicates).

The variant S25L S33Q W56E E61L gave 1.1 nM (6 of 6 replicates). For S25L L30G S33E W56N, the assay gave 330 pM (6 of 6 replicates). The variant S25F Q27P V29E N35T W56N showed 730 pM (6 of 6 replicates). With Y31M K36W W56D the result was 1.3 nM (6 of 6 replicates). For S25L E32P S62D, the assay gave 4.6 nM (6 of 6 replicates).

The variant S25F S26E V29E L30P W56N gave 430 pM (6 of 6 replicates). For S28F V29D L30M R34T Q96E, the assay gave 180 nM (1 of 6 replicates). With S25L S26Q V29N W56Q the result was 2.1 nM (6 of 6 replicates). The variant S25F L30E R99E L102I showed nd (0 of 6 replicates). With S26P Q27Y N35Y W56T the result was 600 nM (1 of 6 replicates).

With S25L S26E S38N W56N T59Q the result was 360 pM (6 of 6 replicates). The variant S25F Q27D Y31L E32W N35T W56N showed 490 pM (6 of 6 replicates). For K24H S25M S26Y V29G W56S T59Q, the assay gave 8.6 nM (6 of 6 replicates). For S25V W56A, the assay gave 2.7 nM (12 of 12 replicates). The variant S25L S26P S38A W56Q showed 580 pM (6 of 6 replicates).

For S25L V29F W56H E61C, the assay gave 2.3 nM (6 of 6 replicates). For K24S S25L S26M W56H T59L, the assay gave 1.4 nM (6 of 6 replicates). For K36V S62Q, the assay gave 93 nM (1 of 6 replicates). The variant S25L S26Q V29Q L30G W56H S62D showed 2.0 nM (6 of 6 replicates). With S25L Q27P V29E N35Q W56N T59L the result was 640 pM (6 of 6 replicates).

The variant Q27M S33E S62E H98Y gave 26 nM (6 of 6 replicates). For E32D S103F, the assay gave 240 nM (3 of 6 replicates). The variant S25A V29F K36V W56G E61D showed 1.2 nM (6 of 6 replicates). With V29D K36S W56N T59R the result was 1.4 nM (6 of 6 replicates). For Y31I R34V, the assay gave 20 nM (6 of 6 replicates).

The variant R34A W56Q gave 6.1 nM (6 of 6 replicates). The variant S25V V29W W56H showed 2.6 nM (6 of 6 replicates). With S25L V29E L30Q W56N the result was 400 pM (6 of 6 replicates). With L30D L102G the result was 33 nM (3 of 6 replicates). With S25L V29W W56N Q96C the result was 1.7 nM (6 of 6 replicates).

Again, the first 2 entries without any signal:

S26I T59D: nd (0 of 6 replicates).
S25F L30E R99E L102I: nd (0 of 6 replicates).

Reference: Li et al. 2023, doi:10.1038/s41467-023-39022-2. File: FLAb, binding data.